Source: patent US20260199426A1, “CYCLIC LIPOPEPTIDE ANTIBIOTIC COMPOUNDS FOR USE IN THE TREATMENT OF PROTEIN AGGREGATION DISEASE” (DEUTSCHES ZENTRUM FÜR NEURODEGENERATIVE ERKRANKUNGEN E. V., priority 2022, published 2026)
*1 amine or outer side, *2 acyl side, *3 side chain or, on linkers, in order; H or OH if unused. Where a SMILES comes first, the peptide text is derived from it. Bridges are numbered along the chain shown (N, C = ends). [ ]: non-standard residue; d: D form. The star is where a group is joined. ξ: configuration not given here. X2 = O=C(C(N[*:1])c1ccc(OC2OC(CO)C(O)C(O)C2OC2OC(CO)C(O)C(O)C2O)cc1)[*:2]; Octa(2Z,4E)dienoyl(7-Me) = CC(C)C/C=C/C=C\C(=O)*; ξPhg(3-Cl-4-OH) = NC(C(=O)O)c1ccc(O)c(Cl)c1; X1 = NC(=O)C(O[*:3])C(N[*:1])C(=O)[*:2]; Hpg = N[CH](C(=O)O)c1ccc(O)cc1; Orn = NCCC[CH](N)C(=O)O

Columns and labels:
TGFBI peptide = TGFBI peptide aggregation assay (ThT, TEM); details: 85 μM TGFBI monomers, 37° C.
2N4R Tau = 2N4R Tau (Homo sapiens, UniProt P10636); test: Seeded Tau aggregation assay (ThT fluorescence, TEM of the fibrils formed)
[1] = target: pre-formed 2N4R Tau fibrils (Homo sapiens, UniProt P10636); test: Tau fibril dissolution assay (pre-formed fibrils, ThT span, TEM)
medin protein = target: T1, medin protein (Homo sapiens, UniProt Q08431); test: Medin aggregation assay (ThT, TEM)
T1 sequence (Q08431 268-317 limits assumed): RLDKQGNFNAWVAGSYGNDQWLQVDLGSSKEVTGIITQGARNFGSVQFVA

2N4R Tau fibrils = 2N4R Tau fibrils (Homo sapiens, UniProt P10636); test: Saturation transfer difference (STD) NMR with Tau fibrils; details: 48-fold excess of Ramoplanin A2 over fibrils, 37° C.
[2] = fibrils formed starting from Tau monomers incubated with Ramoplanin A2

## CC(C)C/C=C/C=C\C(=O)NC(CC(N)=O)C(=O)NC1C(=O)NC(c2ccc(O)cc2)C(=O)NC(CCCN)C(=O)NC(C(C)O)C(=O)NC(c2ccc(O)cc2)C(=O)NC(c2ccc(O)cc2)C(=O)NC(C(C)O)C(=O)NC(Cc2ccccc2)C(=O)NC(CCCN)C(=O)NC(c2ccc(OC3OC(CO)C(O)C(O)C3OC3OC(CO)C(O)C(O)C3O)cc2)C(=O)NC(C(C)O)C(=O)NC(c2ccc(O)cc2)C(=O)NCC(=O)NC(CC(C)C)C(=O)NC(C)C(=O)NC(c2ccc(O)c(Cl)c2)C(=O)OC1C(N)=O (stereo not drawn) [Ramoplanin A2] ({Octa(2Z,4E)dienoyl(7-Me)}-N[X1][Hpg][Orn]T[Hpg][Hpg]TF[Orn][X2]T[Hpg]GLA[ξPhg(3-Cl-4-OH)]; ester 2-C; configuration not given here)
TGFBI peptide
  in vitro aggregation of TGFBI peptide (ThT): inhibits the in vitro aggregation of TGFBI peptide
2N4R Tau; 25 μM 2N4R Tau monomers, 1% (v/v) fibril seeds, 37° C.
  seeded Tau fibrillization in vitro (ThT fluorescence): inhibits seeded Tau fibrillization in vitro
2N4R Tau; [2]
  Tau fibril elongation (TEM): disrupts Tau fibril elongation
  Tau fibril length (TEM): < 100 nm
[1]; added to pre-formed fibrils after 25 h, mole ratios 1:0.3 and 1:1
  change in span of the fluorescence curves induced by Ramoplanin A2: not statistically significant
[1]; pre-formed Tau fibrils incubated further (for 15 h) with Ramoplanin A2
  effect on already formed Tau fibrils (TEM morphology): does not modify already formed Tau fibrils
Medin protein; 20 μM medin monomers, 30° C.
  in vitro aggregation of medin protein (ThT): inhibits the in vitro aggregation of medin protein
Medin protein; compound/medin mixtures
  medin oligomer vs fibril formation (TEM): medin oligomer formation competes with medin fibril formation
2N4R Tau fibrils
  binding to Tau fibrils (STD NMR): STD effects
